Assay results as given in patent US20210253705A1, “METHODS AND AGENTS FOR TREATING ORGAN INJURY AND TRANSPLANT REJECTION” (The Regents of the University of California, priority 2020, published 2021).
“Also recorded” adds a separate entry of the source.

Columns and labels:
[1] = test system: BALB/c left lung allografts in C57BL/6 CCR4+/+ or CCR4−/− recipients; assay: Orthotopic left single lung transplant model; assay type: in vivo, mice; conditions: for lung allograft histopathology / allograft score AR / allograft score LB / allograft score pleural involvement / allograft score septal involvement: day 126; for allograft score AR / allograft score LB / allograft score pleural involvement / allograft score septal involvement: single pre-transplant low dose
Experimental: The orthotopic left single lung transplant model involved BALB/c left lungs transplanted into CCR4+/+ or CCR4−/− recipients in combinations with a single pre-operative dose of 0.1 mg CTLA4-Ig using a modification of the rodent left lung transplant. Donor BALB/c mice were anesthetized, intubated, ventilated and the left lung harvested and Teflon cuffs secured on the pulmonary artery, vein and bronchus then covered with soaked gauze pads on ice. The recipient mice are anesthetized, intubated, and ventilated. A 2-cm incision is made between 3-4 ribs on the left and a ¼-binder clip placed to expose the posterior hilum. Appropriate dissection of the hilum components included ligation and clamping after heparin delivery. A donor lung is inserted using the cuff technique via 10.0 ethilon suture. Incisions closure involved v6-0 surgical suture. During the procedure 1 cc of saline is administered subcutaneously and post-operatively the animals are placed in cages on warm water mattresses until recovered from anesthesia. Buprenorphine 0.1 mg/kg i.p. is given every 12 hours while monitoring for pain. Sutures are removed on post-operative day 7.
(§1) Histopathological Evaluation of Airway and Lung Transplants. Airway and lung graft tissues were fixed overnight in 4% paraformaldehyde, processed, paraffin-embedded, sectioned and stained with hematoxylin and eosin (H&E) or Elastin Trichrome. Three independent blinded reviewers calculated the degree of airway injury using a histological scoring system. All qualitative histological changes were evaluated and the total murine rejection score was calculated based on four pathological criteria: (a) airway lining epithelial loss, (b) deposition of extracellular matrix (ECM), (c) leukocyte infiltration, and (d) luminal fibro-obliteration due to granulation tissue formation and/or fibrosis. Each process was scored on a scale of 0-4 (0=normal, 1=mild, 2=moderate, 3=severe and 4=very severe) and added together for a total rejection score. Lung allograft rejection scores included acute rejection, lymphocytic bronchiolitis, pleural and septal rejection based on established criteria. Images were taken by Zeiss Axioskop 2 plus microscope and analyzed with AxioVision 4.2 imaging software. Images were taken as 5× to show whole pathology of tracheas and as 20× to amplify presence or absence of either epithelial cells and/or fibro-obliteration of the airway allograft lumen as well as different aspects of lung rejection and fibrosis.

[2] = test system: BALB/c airway allografts in C57BL/6 recipients; assay: Heterotopic subcutaneous tracheal/airway transplantation model of allograft rejection; assay type: in vivo, mice; conditions: for airway allograft state (rejection/histology): 0.2 mg i.p. days 0, 2, 4, 6
Text: Murine Rejection Models. Heterotopic subcutaneous tracheal/airway transplantation model of alloreactivity involves the most stringent MHC class I- and II-disparate combination mismatch found in mice: BALB/c (H-2^d) tracheas transplanted subcutaneously into the upper backs of C57BL/6 (H-2^b) mice (allografts), and C57BL/6 tracheas transplanted subcutaneously into the backs of C57BL/6 mice (syngeneic control). Each mouse was subcutaneously transplanted with two tracheas. Small molecule CCR4 inhibitor or antagonist C 021 dihydrochloride (Cat #3581, Tocris Bio-Techne, Minneapolis, Minn., USA) was resuspended in sterile DMSO to 100 mg/ml and diluted further in 1×PBS to be administered as intraperitoneal (i.p.) injections at 50 mg/kg daily starting at day −1 prior to tracheal transplantation until day 14 when allografts were harvested for rejection analysis. For long-term experiments, CTLA4-Ig treatment (Bristol-Myers Squibb Company, Princeton, N.J., USA) was given as 0.2 mg i.p. injection on day 0 prior to tracheal transplantation and at days 2, 4 and 6 thereafter.
as §1
Adoptive transfer experiments. Total (CD90.2^+), CD4^+ or CD8^+ T cells were purified from spleens of naïve CCR4+/+ or CCR4−/− mice by positive selection using CD90.2, CD4(L3T4) or CD8(Ly-2) T cell Microbead Isolation Kits, respectively following manufacturing instructions. Briefly, animal spleens were surgically extracted and pushed through metal mesh to remove cells and washed twice in MACS rinsing buffer supplemented with 2% BSA. Total cells were counted using Crystal Violet and stained with MicroBeads and purified using positive selection by magnetic LS columns, washed and resuspended in sterile saline. After selection, 1×10^7 CD90.2, 5×10^6 of CD4^+ or 5×10^6 of CD8^+ live T cells (as determined by trypan blue staining) were injected i.v. into each mouse prior to subcutaneous transplantation with BALB/c tracheas. Allograft rejection was analyzed at day 21 by histopathological rejection scoring analysis as previously described. Additionally, we performed in vivo CD8^+ T cell depletion experiments. CCR4−/− mice were given an i.p. injection of either 0.25 mg of anti-CD8 antibody (clone 53-6.72) or control isotype antibody (clone 2A3) at day −1 of heterotopic BALB/c transplant and repeated at days 7 and 14 post-transplant with the addition of a transfer of 5×10^6 CD4^+ T cells injected immediately prior to heterotopic transplant procedure. Allografts were isolated at day 21 and evaluated for rejection.

[3] = CCR4+/+ recipients, 0.1 mg i.p. just prior to transplant, by day 126

In the case of “CTLA4-Ig: CTLA4-Ig treatment (Bristol-Myers Squibb Company)”, the “grade A rejection (AR) of lung allografts” value [1, 3] is reported as no less than 3, the “grade B rejection (B) of lung allografts” value [1, 3] is reported as no less than 3 and the lung allograft histopathology ([1]; CCR4+/+ recipients, 0.1 mg i.p. just prior to transplant) is reported as “severe pleural and septal inflammation with and without fibrosis; also recorded: high grade vascular, airway and pleural rejection with fibrosis”. For the same substance, the “allograft score AR” value ([1]; CCR4+/+ recipients) was 100%, the “allograft score LB” value ([1]; CCR4+/+ recipients) was 100% and the “allograft score pleural involvement” value ([1]; CCR4+/+ recipients) was 60%. The “allograft score septal involvement” value ([1]; CCR4+/+ recipients) was 80%, the lung allograft histopathology ([1]; CCR4−/− recipients, 0.1 mg i.p. just prior to transplant) was “virtually normal lung allografts without any significant pathology; also recorded: virtually normal lung allograft” and the “allograft score AR” value ([1]; CCR4−/− recipients) was 0%. For the same substance, the “allograft score LB” value ([1]; CCR4−/− recipients) was 0%, the “allograft score pleural involvement” value ([1]; CCR4−/− recipients) was 0% and the “allograft score septal involvement” value ([1]; CCR4−/− recipients) was 0%. The “airway allograft state (rejection/histology)” value ([2]; CCR4+/+ recipients, by day 42) was “completely rejected and fibro-obliterated; also recorded: rejected and invaded by fibroblasts causing fibro-obliteration”, the “airway allograft state (rejection/histology)” value ([2]; CCR4+/+ recipients, day 126) was “rejected, without epithelium, and invaded by fibroblasts causing fibro-obliteration” and the “long-term airway allograft survival” value ([2]; CCR4 deficiency combined with low dose CTLA4-Ig at time of airway transplantation) was “over 125 days”. The “allograft survival relative to CTLA4-Ig alone” value ([2]; CCR4 deficiency plus CTLA4-Ig versus CTLA4-Ig alone) was “over 3 times”, the “airway allograft state (rejection/histology)” value ([2]; CCR4−/− recipients, day 42) was “virtually normal airways with intact ciliated epithelium and no fibro-obliteration” and the “airway allograft state (rejection/histology)” value ([2]; CCR4−/− recipients, day 126) was “virtually normal airways with intact ciliated epithelium and no fibro-obliteration; also recorded: virtually normal airway allografts”. The “airway allograft state (rejection/histology)” value ([2]; CCR4−/− recipients, days 42 and 126) was “virtually normal”.
